{
  "source": "patent US9320281B2",
  "about": "“Readied in situ glyphosate herbicide soluble powder composition and its preparation process” (ALLVET QUIMICA INDUSTRIAL LTDA., priority 2011, dated 2016)",
  "system": "rats",
  "test": "Acute oral toxicology LD50 in rats",
  "format": "in vivo",
  "data": [
    {"substance": "Coco amide propyl amine oxide", "values": [
      {"measurement": "Acute oral toxicology LD50", "result": ">2000", "unit": "mg/kg"}
    ]}
  ]
}
